The record followed here is EP1731520A1.

The chains behind the UniProt entries cited, without tags or fusion partners.
UniProt P30542, whole entry: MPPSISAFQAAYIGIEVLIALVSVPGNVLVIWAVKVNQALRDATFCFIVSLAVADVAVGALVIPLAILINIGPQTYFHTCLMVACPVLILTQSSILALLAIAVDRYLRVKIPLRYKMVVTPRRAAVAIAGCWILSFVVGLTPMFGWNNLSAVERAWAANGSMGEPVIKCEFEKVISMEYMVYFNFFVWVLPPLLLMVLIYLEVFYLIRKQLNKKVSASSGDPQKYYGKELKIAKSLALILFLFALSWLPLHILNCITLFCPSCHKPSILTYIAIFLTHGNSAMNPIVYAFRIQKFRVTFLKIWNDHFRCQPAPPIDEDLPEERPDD

The target of assay [1] is human adenosine A1 receptor (Homo sapiens, UniProt P30542). Particulars: read-out: Al Yeast IC50; Table 6, Effect of N6-Substituent.
Assay [2] deals with human A1 adenosine receptor (Homo sapiens, UniProt P30542). Description: fus1-LacZ β-galactosidase assay in yeast expressing the A1 receptor. The conditions noted are these: NECA concentration of 10^-8 M.

Molecules are shown by their SMILES. Where only a bound is given, the exact number is not on record here.

The IC50 is the concentration at which inhibition is half-maximal. For `Cc1[nH]c2nc(-c3ccccc3)nc(NC3CC[C@@H](O)[C@@H](O)C3)c2c1C` (some centres unmarked) [Compound 602], in assay [1], the IC50 was more than 10 nM.

For the compound `CCNC(=O)[C@H]1O[C@@H](n2cnc3c(N)ncnc32)[C@H](O)[C@@H]1O` [NECA, 5'-N-ethylcarboxamidoadenosine], in assay [2], the “stimulation of β-galactosidase activity” value is reported as “approximately 2 fold”.
